ClpP mod: qHTS Assay for Activators of ClpP | ATP-dependent Clp protease proteolytic subunit (Bacillus subtilis (strain 168)), P80244 | purified B. subtilis ClpP, FRET peptide cleavage, 20 min | Potency, µM (top dose mostly 57.5 µM) | 1.9% of 340,000 active | AID 651965, 2013; active = well fitted falling curve with a large enough effect; inconclusive = small, poorly fitted or top-dose-only effect; inactive = no such curve, though single readings can be large or run the other way; also: the source files actives as falling curves though it sought activators and does not explain the sign; nearly all actives have a fitted effect of over 65% in size
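ClpP 10 microg/mL final, pH 8 Tris/KCl buffer with BSA, glycerol, Tween-20; compound pinned in; FRET-FV substrate; RT 20 min; Ex320/Em430; ΔFRET vs ADEP 5.8 microM, DMSO, no enzyme.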
rTrxR1 inhibitor: rat TrxR1 inhibition; Potency, µM (top dose mostly 114 µM), actives largely listed as inhibitors; 1% of 390,000 active; recombinant rTrxR1, NADPH fluorescence consumption, selenite substrate; also: nearly all actives have a fitted effect of over 65% in size
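Rat TrxR1 (90 nM in the dispensed reagent) was pre-reduced with 400 uM NADPH for 5 min at room temperature, then incubated with compound for 15 min. After 400 uM selenite was added, NADPH fluorescence (Ex 340/Em 450 nm) was followed for 8 min.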
Apoferritin bind: binds horse apoferritin like a general anesthetic; apoferritin/1-aminoanthracene competitive binding, fluorescence; 0.074% of 350,000 active; P02791; Potency, µM (highest dose often 77.5 µM), most hits filed as inhibitors; also: nearly all actives have a fitted effect of over 20% in size
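Probe: 1-aminoanthracene (50% saturated, PBS). Protein: horse-spleen apoferritin, 10 uM. Incubation: 10 min, room temperature. Detection: 380 nm excitation, 535 nm emission. Analysis: normalized response, four-parameter Hill.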
TrxR1 substrate: rat thioredoxin reductase 1 substrate activity. O89049. purified TrxR1 substrate turnover, NADPH consumption readout. Potency, µM (titrated, usually from 114 µM). 0.01% of 390,000 active. AID 588456; also: nearly all actives have a fitted effect of over 50% in size
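Rat TrxR1, dispensed at 90 nM, was prereduced with 400 uM NADPH (final) for 5 min at ~22 deg C, then incubated with compound 15 min before 400 uM selenite. A first-read NADPH fluorescence drop versus no-compound background flagged substrates.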
miR-21 reporter: raises the signal of a miR-21 reporter | HeLa miR-21 FLuc reporter, luciferase, 48 h | Potency, µM (doses to about 38.3 µM) | 340,000 tested, under 10 active | AID 2288; active = well fitted rising curve with a large enough effect; inconclusive = small, poorly fitted or top-dose-only effect; inactive = no such curve, though single readings can be large or run the other way;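 also: miR-21 action dims this reporter so a rising signal means less miR-21 action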
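HeLa cells endogenously expressing miR-21, stably carrying CMV-driven firefly luciferase with a downstream miR-21 binding site, 2000 cells/well. Titrations up to approximately 40 uM, 48 hours; luciferase luminescence read.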
Hits are given with their value; . = inactive; ? = inconclusive; / = no result given. This is a sample that favours compounds with a hit; in the whole collection about 2.5% have one here. Unless noted, calls follow the shape of the dose curve; as a rule, active = well fitted curve in the direction sought with a large enough effect; inconclusive = small, poorly fitted or top-dose-only effect, or another doubt; inactive = no such curve, though single readings can be large; an effect the other way counts as inactive or inconclusive.

Sequences of proteins named here, by UniProt entry; tags and fusion partners are left off.
ATP-dependent Clp protease proteolytic subunit (Bacillus subtilis (strain 168)), P80244, UniProt P80244, whole entry, looked up: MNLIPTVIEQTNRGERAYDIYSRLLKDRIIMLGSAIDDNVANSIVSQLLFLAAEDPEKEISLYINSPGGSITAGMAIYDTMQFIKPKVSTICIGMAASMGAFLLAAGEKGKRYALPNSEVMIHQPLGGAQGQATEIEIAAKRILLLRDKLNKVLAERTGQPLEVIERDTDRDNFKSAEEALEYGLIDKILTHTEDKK

SMILES	ClpP mod	rTrxR1 inhibitor	Apoferritin bind	TrxR1 substrate	miR-21 reporter
COc1cc(C(=O)NCCCNc2nc3cc(C)cc(C)c3cc2C#N)cc(OC)c1OC	25µM	.	.	.	.
Cc1ccc(S(=O)(=O)Cc2cc(F)c([N+](=O)[O-])cc2[N+](=O)[O-])cc1	.	18µM	.	.	?
COc1cc2c(cc1OC)C1=NC(=O)CN1C(SCc1ccccc1)=N2	22µM	.	.	.	.
COc1cnn(Cc2ccccc2)c(=O)c1SCc1ccccc1	.	.	.	.	.
COc1ccc(S(=O)(=O)NCCSC(C)(C)C)c(Cl)c1Cl	.	.	16µM	.	.
CCCNS(=O)(=O)c1ccc(OC)c(Cl)c1Cl	.	.	.	.	.
CC(C)(C)CC(=O)Nc1ccc(Nc2ccccc2)cc1	.	.	8.9µM	.	.
CC(C)CC(=O)Nc1ccc(Nc2ccccc2)cc1	.	.	?	.	.
COc1ccc(OC)c(/C=C/C(=O)N(C)CC(=O)Nc2ccc(C)cc2)c1	28µM	.	.	.	.
COc1ccc(NC(=O)CN(C)C(=O)/C=C/c2ccc(OCc3ccccc3)cc2)cc1	28µM	.	.	.	.
COc1ccc(OC)c(/C=C/C(=O)N(C)CC(=O)Nc2cc(C)ccc2C)c1	.	.	.	.	.
CCn1ccc2c(OCC(=O)Nc3ccc(C)c(Cl)c3)cccc2c1=O	.	.	?	.	.
CCCCNC(=O)CSc1nnc(C)c2c(C)n(-c3ccccc3)nc12	.	.	.	.	.
Cc1ccc(-c2cc(-c3coc4ccc(Cl)cc4c3=O)c3c(n2)-c2ccccc2OC3)cc1	.	.	.	.	.
Cc1ccc(C(=O)OCC(=O)c2ccccc2)cc1	14µM	.	.	.	.
CC1(C)CC(=O)C2=C(C1)NC(Nc1nc3ccccc3o1)=NC2c1ccccc1 (stereo not drawn)	.	.	/	.	/
C=CCN(c1ccccc1)S(=O)(=O)c1cccc(C(=O)NCC2CCCO2)c1 (stereo not drawn)	28µM	.	.	.	.
CCOc1ccccc1Nc1nnc(-c2cc3cc(Cl)ccc3oc2=O)s1	.	.	.	.	.
CCCCC12CN3CC(C)(CN(C1)C3c1c(C)[nH]c(=O)[nH]c1=O)C2=O (stereo not drawn)	.	.	.	.	.
Cn1c(=O)cc(SCC(=O)N2CCCC2)c2ccccc21	28µM	.	.	.	.
COc1ccc(-c2ccnc3c(C#N)cnn23)cc1	/	.	.	.	.
N#Cc1cnn2c(-c3ccccc3)ccnc12	25µM	.	.	.	.
CCOc1ccccc1N(C)C(=O)c1cc(S(=O)(=O)NCc2ccc(C)cc2)ccc1F	.	.	.	.	?
COc1cc(CNc2ccc3c(c2)CCC3)cc(OC)c1O	.	0.4µM	.	.	.
CC(C)CNC(=O)COC(=O)c1ccc(Cl)c(S(N)(=O)=O)c1	.	.	.	.	.
SMILES	ClpP mod	rTrxR1 inhibitor	Apoferritin bind	TrxR1 substrate	miR-21 reporter
CCCCNC(=O)COC(=O)c1ccc(Cl)c(S(N)(=O)=O)c1	14µM	.	.	.	.
CC(=O)c1ccc(C2CC34CN(Cc5cccc(Cl)c5)S(=O)(=O)C3CC2O4)cc1 (stereo not drawn)	/	.	.	.	/
CC(=O)c1ccc(C2CC34CNS(=O)(=O)C3CC2O4)cc1 (stereo not drawn)	/	28µM	.	.	/
COc1ccc2[nH]cc(C(=O)CN3CCN(C(=O)c4ccco4)CC3)c2c1	.	.	.	.	.
CC(=O)N1CCc2cc(C(=O)CN3CCN(C(=O)c4ccco4)CC3)ccc21	.	16µM	?	.	.
COc1ccc2[nH]c(C)c(C(=O)CN3CCN(C(=O)c4ccco4)CC3)c2c1	.	28µM	.	.	.
COC(=O)c1ccc(-n2c(/C=C\c3cccc(Br)c3)nc3ccccc3c2=O)cc1	.	.	.	.	.
O=C(Nc1ccc(Br)c(Br)c1)C1CCCO1 (stereo not drawn)	/	.	/	.	/
O=C(Nc1ccc2c(c1)C(=O)N(C1CCCCC1)C2=O)C1CCCO1 (stereo not drawn)	32µM	.	.	.	.
CCC(=O)Oc1ccc(C(=O)Nc2ccc3c(c2)C(=O)N(C2CCCCC2)C3=O)cc1	25µM	.	?	.	.
O=C(O)COc1ccc(NC(=O)c2ccc3c(c2)C(=O)N(C2CCCCC2)C3=O)cc1	.	.	.	.	.
O=C(NCc1cccs1)c1nn(-c2ccccc2F)nc1CO	.	.	.	.	?
CC(=O)C1=C(C)NC(SCC(=O)Nc2nccs2)=C(C#N)C1c1ccccc1Cl (stereo not drawn)	28µM	.	.	.	.
COc1ccc(N(Cc2cc3cccc(C)c3[nH]c2=O)C(=O)c2cccc(Cl)c2)cc1	?	.	.	.	.
Cc1cc(Br)ccc1NC(=O)c1cc2c(s1)-c1ccccc1SC2	14µM	.	.	.	.
CCOC(=O)C(=O)Nc1nccs1	.	.	.	.	.
Cc1ccc(/C=C/C(=O)Nc2nccs2)o1	.	45µM	.	.	.
Cc1ccc(/C=C/C(=O)Nc2ncc(C)s2)o1	.	40µM	.	.	.
Cc1cnc(NC(=O)/C=C/c2ccc(Br)o2)s1	.	.	.	.	.
CCOC(=O)/C=C/C(=O)Nc1nccs1	.	50µM	.	.	.
Cc1ccccc1C(=O)Nc1cccc(OCc2cc(=O)n3cccc(C)c3n2)c1	.	.	.	.	.
CCOC(=O)N1CCN(C(=O)c2cnn(-c3cccc(F)c3)c2-n2cccc2)CC1	.	.	.	.	.
Cc1cc(C)c(C(N)=O)c(NCCc2ccccc2)n1	35µM	.	.	.	.
Cc1ccc(C(=O)NCCc2ccc(Cl)cc2)cc1-n1c(C)nc2cccnc21	?	.	.	.	.
COc1ccc(C2C(C#N)=C(C)NC3=C2C(=O)CC(C)(C)C3)cc1 (stereo not drawn)	28µM	.	.	.	.
SMILES	ClpP mod	rTrxR1 inhibitor	Apoferritin bind	TrxR1 substrate	miR-21 reporter
COc1cccc(C2C(C#N)=C(N)N(N(C)C)C3=C2C(=O)CC(C)(C)C3)c1 (stereo not drawn)	/	.	.	.	.
COc1cccc(C2C(C#N)=C(C)NC3=C2C(=O)CC(C)(C)C3)c1 (stereo not drawn)	25µM	.	.	.	.
CCOc1ccc2c(c1)nc(SCC(=O)c1ccc(Br)s1)n2C	.	25µM	?	.	.
C=CCOc1ccccc1C1C2=C(CC(C)(C)CC2=O)Nc2c1c(=O)n(C)c(=O)n2C (stereo not drawn)	28µM	.	.	.	.
CCOC(=O)N1CCc2c(sc(NCc3ccc(N(C)C)cc3)c2C(=O)Nc2ccccc2OCC)C1	.	.	.	.	.
COc1ccc(C=C(c2ccc(OC)cc2)c2ccc(OC)cc2)cc1	32µM	.	.	.	.
